This is a selection; strong and weak results do not stand in their true shares. Active and inactive are the calls of the source.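 How the source made its calls: active means mean replicate score, as percent of positive control, at or above 50; inconclusive means mean below 50 but at least one replicate at or above 50; inactive means mean and every replicate below 50.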
Test: blockers of SFLLRN-triggered platelet ATP release – cell-based, MLPCN, human platelets, primary screen (AID 1663)
Settings: human platelet-rich plasma, SFLLRN dense granule ATP release, luminescence; stronger effect = higher value;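 compounds screened at 7.5 µM in platelet-rich plasma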
For `N#Cc1ccc(C(=O)NCC2(N3CCCCC3)CCCCC2)cc1`, the inhibition was inactive: -6.2%.
For `CC(C)(C)OC(=O)N1CCC(N(C(=O)c2ccccc2)c2ccc(Cl)cc2)CC1`, the inhibition was inactive: -0.674%.
With `CN(C)C1(CNC(=O)c2cccc(C#N)c2)CCCCC1` the inhibition was inactive: 1.62%.
In the case of `CCCN1CCC(Nc2cc(OC)cc(OC)c2)CC1`, the inhibition is reported as inactive: 1.41%.
In the case of `c1ccc(CN2CCC(Nc3ccccc3)CC2)cc1`, the inhibition is reported as inactive: 7.4%.
With `COc1ccc(C(=O)NCC2(N3CCOCC3)CCCCC2)cc1OC` the inhibition was inactive: -2.2%.
With `CCOC(=O)N1CCC(Nc2ccc(C)cc2)CC1` the inhibition was inactive: -5.48%.
In the case of `N/C(=N\O)c1c(N)no[n+]1[O-]`, the inhibition is reported as inactive: -7.29%.
In the case of `O=C(OC1CN2CCC1CC2)C1c2ccccc2C=Cc2ccccc21` (centres undefined), the inhibition is reported as inactive: 25.7%.
In the case of `CCc1cc(C(=O)NCC2(N3CCCCC3)CCCCC2)sc1C`, the inhibition is reported as inactive: -7.84%.
For `CN1CCC(Nc2ccc(F)c(Cl)c2)CC1`, the inhibition was inactive: -1.38%.
For `CCOc1ncccc1C(=O)NCC1(N2CCOCC2)CCCCC1`, the inhibition was inactive: 7.91%.
For `O=C(O)C1(Nc2ccccc2)CCN(Cc2ccccc2)CC1`, the inhibition was inactive: 5.71%.
In the case of `CC(C)(C)OC(=O)N1CCC(Nc2ccccc2)CC1`, the inhibition is reported as inactive: 4.09%.
In the case of `CCCOc1ccc(C(=O)NCC2(N(C)C)CCCCC2)cc1`, the inhibition is reported as inactive: -1.12%.
With `COc1cccc(C(=O)N(c2cc(C)cc(C)c2)C2CCN(C(=O)OC(C)(C)C)CC2)c1` the inhibition was inactive: 1.86%.
With `COc1cc(OC)cc(C(=O)NCC2(N3CCOCC3)CCCCC2)c1` the inhibition was inactive: -12.6%.
In the case of `CCC(CO)(C(=O)OC1CN2CCC1CC2)c1ccccc1` (centres undefined), the inhibition is reported as inactive: 0.708%.
For `CN1CCC(Nc2ccc(Cl)cc2)CC1`, the inhibition was inactive: -3.21%.
In the case of `CCCOc1ccc(C)cc1CN(CCCl)CCCl`, the inhibition is reported as inactive: 15.5%.
For `COc1cc(OC)cc(C(=O)NCC2(N3CCCCC3)CCCCC2)c1`, the inhibition was inactive: -10.5%.
For `Fc1ccccc1NC1CCN(Cc2ccccc2)CC1`, the inhibition was inactive: 9.24%.
For `Cc1ccc(C(=O)NCC2(N3CCCCC3)CCCCC2)o1`, the inhibition was inactive: -4.23%.
For `CCN1CCC(Nc2cccc(F)c2)CC1`, the inhibition was inactive: 2.54%.
For `CN(C)c1ccc(C(=O)NCC2(N3CCCCC3)CCCCC2)cc1`, the inhibition was inactive: 0.379%.
In the case of `CCOc1ccc(C)cc1CN(CCCl)CCCl`, the inhibition is reported as inactive: 5.43%.
For `CCOC(=O)N1CCC(Nc2ccc(F)cc2)CC1`, the inhibition was inactive: -2.56%.
For `COc1ccc(NC2CCN(CCc3ccccc3)CC2)c(OC)c1`, the inhibition was inactive: 4.47%.
With `O=C(NCC1(N2CCCCC2)CCCCC1)c1ccc(F)cc1` the inhibition was inactive: -1.79%.
For `Cc1ccc(OCC(C)C)c(CN(CCCl)CCCl)c1`, the inhibition was inactive: 8.64%.
In the case of `COc1cc(C(=O)NCC2(N(C)C)CCCCC2)ccc1OC(F)F`, the inhibition is reported as inactive: 0.649%.
In the case of `CCOC(=O)N1CCC(Nc2cccc(C)c2)CC1`, the inhibition is reported as inactive: 1.73%.
With `COc1ccc(C(=O)NCC2(N3CCCCC3)CCCCC2)c(OC)c1OC` the inhibition was inactive: 2.25%.
With `CC(C)(C)OC(=O)N1CCC(N(C(=O)c2ccccc2)c2ccc(F)cc2)CC1` the inhibition was inactive: 1.82%.
With `COc1ccc(C(=O)NCC2(N3CCCCC3)CCCCC2)cc1` the inhibition was inactive: 1.62%.
For `O=C(NCC1(N2CCCCC2)CCCCC1)c1cccs1`, the inhibition was inactive: 0.951%.
With `O=C(NCC1(N2CCCCC2)CCCCC1)c1ccc(=O)[nH]c1` the inhibition was inactive: 9.03%.
With `CSc1ccccc1C(=O)NCC1(N2CCCCC2)CCCCC1` the inhibition was inactive: 5.92%.
In the case of `Cc1cc(C)cc(N(C(=O)c2ccccc2)C2CCN(C(=O)OC(C)(C)C)CC2)c1`, the inhibition is reported as inactive: -12.2%.
With `O=C(NCC1(N2CCCCC2)CCCCC1)c1ccc(Cl)nc1` the inhibition was inactive: -7.75%.
With `O=C(NCC1(N2CCOCC2)CCCCC1)c1cc2ccccc2o1` the inhibition was inactive: 7.05%.
In the case of `O=C(OC1CN2CCC1CC2)C1c2ccccc2Oc2ccccc21` (centres undefined), the inhibition is reported as inactive: -0.777%.
In the case of `N#CC1(Nc2ccccc2)CCN(Cc2ccccc2)CC1`, the inhibition is reported as inactive: -33%.
In the case of `CCOC(=O)N1CCC(Nc2ccc(OC)cc2)CC1`, the inhibition is reported as inactive: 1.12%.
In the case of `CC(C)c1ccc(NC2CCN(C(=O)OC(C)(C)C)CC2)cc1`, the inhibition is reported as inactive: -4.78%.
For `CN(C)c1cccc(C(=O)NCC2(N3CCCCC3)CCCCC2)c1`, the inhibition was inactive: -3.3%.
In the case of `COc1ccc(CN(CCCl)CCCl)cc1Cl`, the inhibition is reported as inactive: -5.17%.
For `COc1cc(OC)c(C(=O)NCC2(N(C)C)CCCCC2)cc1OC`, the inhibition was inactive: -0.46%.
With `CN1CCC(Nc2cccc(F)c2)CC1` the inhibition was inactive: -6.34%.
In the case of `CCCOc1ccc(C(=O)NCC2(N(C)C)CCCCC2)cc1OC`, the inhibition is reported as inactive: -6.77%.
With `O=C(NCC1(N2CCCCC2)CCCCC1)c1ccc(OC(F)F)cc1` the inhibition was inactive: -13.6%.
In the case of `N#CC1(Nc2ccccc2)CCN(CCc2ccccc2)CC1`, the inhibition is reported as inactive: 2.89%.
With `CCN1CCC(Nc2ccc(Cl)cc2)CC1` the inhibition was inactive: 1.54%.
With `O=C(NCC1(N2CCCCC2)CCCCC1)c1cccc([N+](=O)[O-])c1` the inhibition was inactive: -6.54%.
For `O=C(NCC1(N2CCCCC2)CCCCC1)c1cccc(C(F)(F)F)c1`, the inhibition was inactive: 21.7%.
With `O=C(NCC1(N2CCOCC2)CCCCC1)c1cc(=O)[nH]c2ccccc12` the inhibition was inactive: 2.97%.
In the case of `COc1cc(C(=O)NCC2(N3CCCCC3)CCCCC2)ccc1OC(F)F`, the inhibition is reported as inactive: -0.194%.
For `COc1ccc(NC2CCN(C(=O)OC(C)(C)C)CC2)cc1`, the inhibition was inactive: 1.63%.
In the case of `CN1CCN(CCOC(=O)C(O)(c2ccccc2)c2ccccc2)CC1`, the inhibition is reported as inactive: -12.8%.
